For this series the following is noted: male, CD-1, mouse, in vivo, po, 30 mg/kg.

In the case of `COC(=O)Nc1nc2cc(C(=O)c3ccccc3)ccc2n1COP(=O)([O-])OCOC(=O)OC(C)C.[Na+]` [Compound 12, Methyl (5-benzoyl-1-(((hydroxy(((isopropoxycarbonyl)oxy)methoxy)phosphoryl)oxy)methyl)-1H-benzo[d]imidazol-2-yl)carbamate, sodium salt], the “B/P (brain to plasma ratio of MBZ)” value was determined as 0.8.

Values taken from US20210205271A1 (The Johns Hopkins University, priority 2018, published 2021).
